Measurements published in ChEMBL document CHEMBL2412999, “Anticonvulsant properties of histamine H3 receptor ligands belonging to N-substituted carbamates of imidazopropanol” (Bioorg Med Chem Lett, 2013).

By UniProt entry, the sequences of proteins in these tests, tags left out. Where a name states a change or a piece, a line headed by the entry shows the natural chain unless it says otherwise.
UniProt Q9Y5N1: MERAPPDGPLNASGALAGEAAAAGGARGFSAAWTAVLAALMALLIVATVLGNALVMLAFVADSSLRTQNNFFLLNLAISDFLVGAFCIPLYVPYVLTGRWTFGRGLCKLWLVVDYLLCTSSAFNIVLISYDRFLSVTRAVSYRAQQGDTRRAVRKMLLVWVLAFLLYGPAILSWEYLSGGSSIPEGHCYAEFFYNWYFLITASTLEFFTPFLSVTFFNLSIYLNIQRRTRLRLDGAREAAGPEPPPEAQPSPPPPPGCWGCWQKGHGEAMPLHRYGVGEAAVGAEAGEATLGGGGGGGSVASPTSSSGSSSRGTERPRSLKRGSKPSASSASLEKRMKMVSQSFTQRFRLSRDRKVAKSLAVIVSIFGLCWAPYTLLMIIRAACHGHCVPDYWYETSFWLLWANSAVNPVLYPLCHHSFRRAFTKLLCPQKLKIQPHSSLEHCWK

Target: Histamine H3 receptor (Homo sapiens, UniProt Q9Y5N1)
Test: Displacement of [125I]iodoproxyfan from human histamine H3 receptor expressed in CHO-K1 cells
Type: cell-based

With `C=CCCNC(=O)OCCCc1c[nH]cn1` the Ki was 550 nM.
